In this series the test system is Hen. Kind of series: Hen neurotox. Format: in vivo.

Molecules are shown by their SMILES.

Take `CCCCOP(=O)(OCCCC)OCCCC`: the “LD50 (hen neurotox test level)” value amounted to 1500 mg/kg.
